Data from patent US20080312435A1, “Imine Compound” (TAISHO PHARMACEUTICAL CO., LTD., priority 2004, published 2008).
pIC50: −log10 of the molar value.

Sequences of proteins named here, by UniProt entry; tags and fusion partners are left off.
UniProt P34972, whole entry: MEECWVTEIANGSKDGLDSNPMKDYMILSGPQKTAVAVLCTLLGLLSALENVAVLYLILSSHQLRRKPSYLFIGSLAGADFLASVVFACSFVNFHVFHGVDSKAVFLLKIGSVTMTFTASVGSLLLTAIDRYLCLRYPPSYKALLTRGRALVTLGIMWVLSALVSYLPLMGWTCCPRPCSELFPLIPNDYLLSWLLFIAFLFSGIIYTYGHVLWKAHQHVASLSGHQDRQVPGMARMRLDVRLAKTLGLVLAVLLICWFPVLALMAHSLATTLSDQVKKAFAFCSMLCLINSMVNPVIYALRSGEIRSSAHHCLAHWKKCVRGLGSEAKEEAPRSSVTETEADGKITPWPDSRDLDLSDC

Molecular target: human CB2 receptor (Homo sapiens, UniProt P34972)
Experiment: Human CB2 receptor binding inhibition test ([3H]CP-55,940, CHO membrane fractions)
Settings: read-out: CB2 IC50 (Inhibition of binding to human CB2 receptor); [3H]CP-55,940, membrane fractions of CHO cells stably expressing human CB2 receptor, 25° C., 2 hours

Row | Compound | pIC50
1 | Cc1cc(C)n(CC2CC2)c(=NC(=O)c2cccc(C(F)(F)F)c2F)c1 | 7.78
2 | Cc1c(C(C)(C)C)sc(=NC(=O)c2cccc(Br)c2)n1CC1CC1 | 9.00
3 | CCn1c(C)c(C(C)(C)C)sc1=NC(=O)c1cc(F)ccc1OC | 8.14
